A word on the Ki: it is a measure of affinity in units of concentration, obtained from inhibition or displacement. Low readings indicate a stronger hold on the target, high ones a looser hold on the target.

Each structure is given as a SMILES string.

This experiment has as its target Urokinase-type plasminogen activator (Homo sapiens, UniProt P00749).
On to `N=C(N)c1ccc2cc(C(=O)Nc3cccc(OC4CCCC4)c3)ccc2c1`, for which affinity was put at a Ki of 0.0251 µM.
In the case of `N=C(N)c1ccc2cc(CCc3ccccc3)cc(Br)c2c1`, the Ki was 1.26 µM.
The same measure for `N=C(N)c1ccc2cc(C3CC3c3ccccc3)ccc2c1` (stereo not given): 1.26 µM; for `COc1ccc2ccc(C(=N)N)cc2c1OCC(N)=O`: 0.631 µM; for `[H]/N=C(\N)c1ccc2ccc(OC)c(OCCCBr)c2c1`: 6.31 µM.

These data come from ChEMBL document CHEMBL1158408, “Large-scale application of high-throughput molecular mechanics with Poisson-Boltzmann surface area for routine physics-based scoring of protein-ligand complexes” (J Med Chem, 2009).
